This passage reports EC50 results from US20240262832A1, “SMALL MOLECULE MODULATORS OF GLUCOCEREBROSIDASE ACTIVITY AND USES THEREOF” (Vanqua Bio, Inc., priority 2021, published 2024).

The target of this assay is T1, GCase (Homo sapiens, UniProt P04062).
T1 construct: endogenous in cells; host or cells: HeLa cells
T1 sequence (P04062 40-536): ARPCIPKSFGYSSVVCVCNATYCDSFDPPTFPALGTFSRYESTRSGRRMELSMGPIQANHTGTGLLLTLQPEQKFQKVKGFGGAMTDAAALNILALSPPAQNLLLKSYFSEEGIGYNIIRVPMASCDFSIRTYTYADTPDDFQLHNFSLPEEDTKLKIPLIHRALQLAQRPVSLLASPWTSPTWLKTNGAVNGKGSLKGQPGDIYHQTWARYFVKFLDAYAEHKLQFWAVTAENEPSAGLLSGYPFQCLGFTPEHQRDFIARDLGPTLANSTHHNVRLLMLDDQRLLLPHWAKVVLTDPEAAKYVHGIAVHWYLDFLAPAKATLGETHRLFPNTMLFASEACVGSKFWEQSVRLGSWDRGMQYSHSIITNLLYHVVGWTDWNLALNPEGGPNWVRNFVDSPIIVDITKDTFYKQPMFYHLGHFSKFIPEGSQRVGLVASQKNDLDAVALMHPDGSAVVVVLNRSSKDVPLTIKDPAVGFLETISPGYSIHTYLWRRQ
As to the kind of experiment: activation of GCase in a live cell PFB assay in HELA cells. The assay is classed as cell-based.

`O=C(c1ccc2cc[nH]c2c1)N1C2CCC1CC(COc1ccccc1)C2` (stereo not shown) [Compound 340, (1H-indol-6-yl)(3-(phenoxymethyl)-8-azabicyclo[3.2.1]octan-8-yl)methanone] had an EC50 of 10 to 50 µM.
